Assays:
[1] = molecular target: human-mouse chimeric GPR119 (Homo sapiens, UniProt Q8TDV5, A235T/C313R/C323Y/E253K/F304I/F307L/G211A/G245S/H255C/K284R/L224V/L258Q/L288Q/L301F/P218V/P318T/Q252H/R262K/S214P/S219N/S228A/S309P/S322A/T217S/T239S/V227I/V300F); assay: Tet-inducible cAMP assay (cAMP accumulation, HTRF); conditions: read-out: GPR119 EC50, Flp-In-T-Rex-HEK293 cells expressing chimeric human/mouse GPR119, tested form: TFA
[2] = system: male C57BL/6J mice; assay: Mouse oral glucose tolerance test; conditions: tested form: TFA
Experimental: Mouse Oral Glucose Tolerance Test
Twenty four (24) male C57BL/6J mice (8-10 weeks old, average weight 28 g) were randomized into 4 groups (1 mouse/cage) of 6 mice per group based on fed plasma glucose and body weight. Prior to initiating the study, mice were fasted overnight and the next morning they were weighed and placed in the experimental lab. After 30 min in the environment, the mice were bled via tail tip at −60 min and immediately given their first oral administration of vehicle (40% PEG400, 10% Cremophor EL, 50% water) or compound solutions (5 ml/kg). At time 0 the mice were bled and given 50% glucose (2 g/kg) to initiate the oral glucose tolerance test (oGTT). The mice were bled 30, 60 and 120 min after the glucose load. Blood samples were drawn into potassium EDTA, placed on ice during the study and subsequently centrifuged for 10 min at 3000 rpm at 4° C. Plasma samples were diluted 11-fold for glucose analysis in the COBAS MIRA® System (Roche Diagnostics). Area under the curve was calculated from the plasma glucose time course data using the trapezoid rule with fasting plasma glucose as the baseline (GraphPad Prism Software). The statistical significance of the changes in the glucose AUCs resulting from the different treatments was determined by one-way ANOVA followed by Dunnett's test using the vehicle group as the control (JMP software, release 5.1.2).
Find below in Table 6 data for compared compounds (See WO 2009/012275 A1).

Sequences of proteins named here, by UniProt entry; tags and fusion partners are left off. A line that says so, or that is headed by a name, gives the form on record, which may keep a tag or linker. Residues count along the entry.
UniProt Q8TDV5, 1-329 with tags or gaps with the stated changes limits assumed: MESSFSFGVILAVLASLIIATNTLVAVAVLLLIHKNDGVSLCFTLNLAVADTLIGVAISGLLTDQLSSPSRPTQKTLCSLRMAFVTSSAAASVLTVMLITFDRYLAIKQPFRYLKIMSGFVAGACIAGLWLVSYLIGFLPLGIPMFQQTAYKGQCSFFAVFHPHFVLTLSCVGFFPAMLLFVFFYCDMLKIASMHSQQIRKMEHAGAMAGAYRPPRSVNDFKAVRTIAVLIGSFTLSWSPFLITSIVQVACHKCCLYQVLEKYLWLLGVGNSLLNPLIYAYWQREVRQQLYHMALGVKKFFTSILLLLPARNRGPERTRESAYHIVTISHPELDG

[3] = Metabolic stability in liver microsomes test; conditions: tested form: TFA

EC50 [1]: 4 nM | times less stable (half-life) than Example 1 of the present invention ([3]; human liver microsome half-life ratio): 45 times | Human Liver Microsome Half-life ([3]; human liver microsomes, NADPH, 37° C., 0.5 μM compound): 4 min
SMILES: CCCc1cnc(N2CCC(Oc3cc(=O)n(-c4ccc(S(C)(=O)=O)c(F)c4)cc3Cl)CC2)nc1
reduction in glucose ([2]; at the stated dose (0.1 mg/kg Example 1; 0.3 mg/kg Example 224 of WO 2009/012275 A1)): 30% | Minimally efficacious Dose ([2]; oral, given 60 min before glucose load (2 g/kg), oGTT in C57BL/6J mice): 0.3 mg/kg | Glucose Lowering ([2]; plasma glucose AUC change vs vehicle at the minimally efficacious dose, oral): −30% | times less effective in reducing glucose than Example 1 of the present invention ([2]; ratio of doses 0.3 mg/kg vs 0.1 mg/kg): three

Reference: US8415367B2, “Pyrimidinylpiperidinyloxypyridinone analogues as GPR119 modulators” (Bristol-Myers Squibb Company, priority 2010, dated 2013)
